From patent US20180043059A1, “3D Ti-6Al-4V Structures with Hydrogel Matrix” (priority 2016, published 2018)

Test system: MC3T3-E1 cells
Test: Alizarin Red S (ARS) mineralization assay
Format: cell-based, mouse
Details: plates; various DFM concentrations
Source text: Because it is expected that pre-osteoblasts differentiate into osteoblasts under a hypoxic condition, cells should mineralize calcium in the ECM. The study of mineralization of ECM can be viewed as a measure or potential for bone formation. In this regard, Alizarin Red Assay (ARS) (Sigma-Aldrich) is used qualitatively and quantitatively to indicate the presence of calcium in the matrix. […] The negative control for this experiment is cells grown in 3D printed foams in complete media with no added glutamate. After incubation, the samples are washed carefully with PBS without disturbing the cell layer and fixed with 4% paraformaldehyde for 30 minutes. The 3D foam structures were then stained with alizarin red (pH˜4.1) in the dark and at room temperature for 30 minutes. Samples are qualitatively studied via light microscope after rinsing with PBS. The calcium nodules should appear red. To conduct quantitative analysis, 10% cetyl pyridinium chloride will be added to remove the alizarin red stain. The absorbance of the solution is measured at 570 nm OD with a spectrophotometric microplate reader.

CC(=O)N(O)CCCCCNC(=O)CCC(=O)N(O)CCCCCNC(=O)CCC(=O)N(O)CCCCCN.CS(=O)(=O)O [DFM, Deferoxamine Mesylate]
synthesis of hydroxyapatite versus DFM concentration: mostly observed at lower concentrations of DFM
